The record followed here is patent publication US7615555B2, “Piperidine derivatives as modulators of chemokine receptor CCR5” (AstraZeneca AB, priority 2004, dated 2009).

Sequences of proteins named here, by UniProt entry; tags and fusion partners are left off.
UniProt P51681, whole entry: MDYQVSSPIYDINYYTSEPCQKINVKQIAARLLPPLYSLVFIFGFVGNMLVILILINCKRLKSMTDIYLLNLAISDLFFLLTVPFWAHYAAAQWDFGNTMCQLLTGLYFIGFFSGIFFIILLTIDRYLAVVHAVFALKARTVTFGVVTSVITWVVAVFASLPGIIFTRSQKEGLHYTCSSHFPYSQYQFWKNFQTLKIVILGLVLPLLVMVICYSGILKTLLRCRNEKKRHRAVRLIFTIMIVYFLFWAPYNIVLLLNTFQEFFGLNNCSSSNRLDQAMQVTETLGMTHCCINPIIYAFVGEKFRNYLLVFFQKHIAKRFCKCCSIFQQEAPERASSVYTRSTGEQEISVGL

In this assay the target is recombinant human CCR5 receptor (Homo sapiens, UniProt P51681). The experiment in a line: in vitro radioligand binding assay: inhibition of MIP-1α binding. The following applies: displacement of 0.1 nM iodinated MIP-1α; membranes from Chinese hamster ovary cells expressing recombinant human CCR5; scintillation proximity; average if tested more than once. As for the experimental part: The ability of compounds to inhibit the binding of MIP-1α was assessed by an in vitro radioligand binding assay. Membranes were prepared from Chinese hamster ovary cells which expressed the recombinant human CCR5 receptor. These membranes were incubated with 0.1 nM iodinated MIP-1α, scintillation proximity beads and various concentrations of the compounds of the invention in 96-well plates. The amount of iodinated MIP-1α bound to the receptor was determined by scintillation counting. Competition curves were obtained for compounds and the concentration of compound which displaced 50% of bound iodinated MIP-1α was calculated (IC50).
In Table XII the results are presented as Pic50 values. A Pic50 value is the negative log (to base 10) of the IC50 result, so an IC50 of 1 μM (that is 1×10^−6M) gives a Pic50 of 6. If a compound was tested more than once then the data below is an average of the probative tests results.
Consider `CS(=O)(=O)c1ccc2c(c1)ncn2C1CCN(CCC(c2ccccc2)N2CCN(c3ccc(F)cc3)CC2)CC1` (centres unmarked), for which the pIC50 is reported as 7.4.
For `Cc1nnc(C(C)C)n1C1CCN(CC[C@@H](c2cc(F)cc(F)c2)C2CCOCC2)CC1`, the pIC50 is reported as 7.2.
As for `CS(=O)(=O)N1CCC([C@@H](CCN2CCC(n3nnc4cc(C(F)(F)F)ccc43)CC2)c2cc(F)cc(F)c2)CC1`, the figure is 7.3; as for `Cc1nnc(C(C)C)n1C1CC2CCC(C1)N2CCC(c1ccccc1)C1CCN(S(=O)(=O)C(F)(F)F)CC1` (centres unmarked), 8.1.
Consider `CS(=O)(=O)c1ccc(Cc2noc(C3CCN(CCC(c4ccccc4)C4CCN(S(C)(=O)=O)CC4)CC3)n2)cc1` (centres unmarked), for which the pIC50 is recorded as 8.8.

As a reminder, the pIC50 is the negative decadic logarithm of the IC50, by convention in mol/L.
